In patent US9662305B2 (REVIVE THERAPEUTICS INC., priority 2012, dated 2017):

Tested on: ABCG2
Details: 100 mg/kg/day for 7 days; data not shown

CC(C)(S)C(=O)N[C@@H](CS)C(=O)O [bucillamine, N-(2-mercapto-2-methylpropionyl)-L-cysteine]
ABCG2 protein in the mouse kidney (Western blot): unregulated
